From article PMC6380069, “H2S suppresses indoleamine 2, 3-dioxygenase 1 and exhibits immunotherapeutic efficacy in murine hepatocellular carcinoma” (Journal of Experimental & Clinical Cancer Research : CR, 2019)

Sequences of proteins named here, by UniProt entry; tags and fusion partners are left off.
UniProt P14902, whole entry: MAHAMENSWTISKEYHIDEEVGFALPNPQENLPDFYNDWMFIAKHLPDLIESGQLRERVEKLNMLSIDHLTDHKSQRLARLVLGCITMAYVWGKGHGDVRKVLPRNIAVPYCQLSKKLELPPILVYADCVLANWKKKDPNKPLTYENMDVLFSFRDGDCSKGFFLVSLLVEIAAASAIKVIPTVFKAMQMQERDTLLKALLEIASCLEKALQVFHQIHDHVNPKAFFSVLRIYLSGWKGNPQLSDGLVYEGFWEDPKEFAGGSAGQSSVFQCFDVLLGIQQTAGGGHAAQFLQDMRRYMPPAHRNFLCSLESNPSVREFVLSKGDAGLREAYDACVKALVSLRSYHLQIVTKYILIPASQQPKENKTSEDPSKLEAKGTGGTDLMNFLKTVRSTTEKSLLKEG

Target: T1, indoleamine 2, 3-dioxygenase 1 (rhIDO1) (Homo sapiens, UniProt P14902)
T1 construct: gene IDO1

`[N]=O` [nitric oxide] was tested, and the “in-vitro enzymatic assay with purified rhIDO1; NO delivered by the donor sodium” value was “Combined data demonstrated that NO rather than H2S was a direct inhibitor of IDO1”.
